The chains behind the UniProt entries cited, without tags or fusion partners.
UniProt Q07817, whole entry: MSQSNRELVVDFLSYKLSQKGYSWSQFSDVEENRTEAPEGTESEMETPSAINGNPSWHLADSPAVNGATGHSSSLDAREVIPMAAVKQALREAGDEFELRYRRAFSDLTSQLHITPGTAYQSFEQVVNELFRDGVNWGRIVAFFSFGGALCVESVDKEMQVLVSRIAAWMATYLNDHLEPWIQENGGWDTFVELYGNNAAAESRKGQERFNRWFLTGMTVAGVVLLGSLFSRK

In PMC5584254, “Identification of novel small molecule Beclin 1 mimetics activating autophagy” (Oncotarget, 2017):

Tests used:
Bcl-xL protein [1] = target: T1, Bcl-xL protein (Homo sapiens, UniProt Q07817); assay: Surface plasmon resonance assay, immobilized Bcl-xL; type: binding; settings: SPR kinetic analysis, 1:1 model
T1 construct: made in house
Method: The surface plasmon resonance experiments were performed using a Biacore 3000 (GE Healthcare Pittsburgh, PA) equipped with a research-grade CM5 sensor chip. The ligand (Bcl-xL) was immobilized using amine-coupling chemistry. The surfaces of flow cells on a Biacore sensor chip CM5 were activated for 7 min with a 1:1 mixture of 0.1 M NHS (N-hydroxysuccinimide) and 0.1 M EDC (3-(N,N-dimethylamino) propyl-N-ethylcarbodiimide) at a flow rate of 5 μL/min. The ligand (Bcl-xL) at a concentration of 180 μg/mL in 10 mM sodium acetate, pH 4.5, was immobilized at a density of about 10000 RU on flow cell 2; the ligand (SUMO-Bcl-2, 37.5 kDa, > 90% pure based on SDS–PAGE) at a concentration of 44 μg/ml in 10 mM sodium acetate, pH 4.5, was immobilized at a density of 10000 RU on flow cell 3; flow cell 1 was left blank to serve as a reference surface. All the surfaces were blocked with a 7 min injection of 1 M ethanolamine, pH 8.0.
For kinetic analysis, a concentration series of analyte were injected over the flow cells at a flow rate of 60 μL/min at 20 °C. The complex was allowed to associate and dissociate for 120 and 180 s, respectively. […]
All measurements were taken with flow cell 1 as a reference (i.e. sensorgram depicts “2–1 correction”) and corrected for DMSO bulk differences via the calibration curves. […] The equilibrium dissociation constant (KD) was determined by Kd/Ka.

Bcl-xL protein [2] = target: T1, Bcl-xL protein; assay: FP direct binding of fluorescein-labeled BH3 peptides to Bcl-xL; settings: Bcl-xL titrated to 50 nM fluorescent peptide
Method: Figure 1 FP-based HTS for Beclin 1 mimetics (A) Schematic presentation of the Beclin 1 protein and sequences of five synthetic peptides modified from Beclin 1 BH3 peptide. Diagram of human Beclin 1 protein with different domains is shown in the bottom. BH3 domain is necessary and sufficient for interaction with Bcl-2/Bcl-xL. Amino acids in red are the critical residues for the binding. (B) Five fluorescein-labeled Beclin 1 BH3 peptides were tested for their binding ability to Bcl-xL protein in FP assay. Fluorescein-labeled Bak BH3 peptide was used as a positive control. Bcl-xL protein was titrated to a solution of 50 nM peptides. (C) Competitive binding assay with positive controls, ABT-263 and (–)-gossypol ((–)G). […] (D–E) HTS was performed with ~50000 compounds from Prestwick, Microsource, CMLD and Chembridge libraries. The four libraries were divided into two groups and screened separately. Compounds activity (percent of inhibition) of first screen (D) and second screen (E) were shown with Z′ value indicated on top. […]
All N′-fluorescein-labeled peptides were purchased from Kansas State University (Manhattan, KS). […] Anisotropy measurements were taken at room temperature using a BioTek Synergy H4 plate reader (Biotek, Winooski, VT) following the protocol recommended by the manufacture. […] After 2 h incubation, the plate was read and polarization was calculated.

## CC[C@H](C)[C@H](NC(=O)[C@H](CC(=O)O)NC(=O)[C@H](Cc1ccccc1)NC(=O)[C@H](CC(C)C)NC(=O)[C@H](CC(=O)O)NC(=O)CNC(=O)[C@@H](NC(=O)[C@@H](NC(=O)[C@H](CCCCN)NC(=O)[C@H](CC(C)C)NC(=O)[C@H](CCCNC(=N)N)NC(=O)[C@H](CCCNC(=N)N)NC(=O)[C@H](CO)NC(=O)[C@H](CC(C)C)NC(=O)[C@H](CC(N)=O)NC(=O)[C@H](CCC(=O)O)NC(=O)[C@H](CCSC)NC(=O)[C@@H](N)[C@@H](C)O)C(C)C)[C@@H](C)O)C(=O)N[C@@H](CCSC)C(=O)N[C@@H](CO)C(=O)O [Compound 20-mer]
Bcl-xL protein [1]; read-out: association rate (Ka) to Bcl-xL
  kon: 138000 M⁻¹ s⁻¹
Bcl-xL protein [1]; read-out: dissociation rate (Kd) from Bcl-xL
  koff: 1 s⁻¹
Bcl-xL protein [2]
  binding to Bcl-xL in FP assay: good binding curves
